Our source for the EC50 values is US11242351B2, “Tricyclic inhibitors of the BCL6 BTB domain protein-protein interaction and uses thereof” (priority 2017, dated 2022).

SMILES strings stand for the structures.

In the test the test system is Karpas422 cells. Put plainly: Tumor cell growth inhibition assay. Format: cell-based. Conditions: Homo sapiens, KARPAS-422, 144 h, read-out: GI Karpas EC50. As to the method: Tumor Cell Growth Inhibition Assay:
Karpas422 cells were seeded into a 96-well plate at 2,000 cells/well in 150 μl medium (Alpha-MEM containing 10% FBS, […] Normocin, and […] Gentamycin, Invitrogen). A HP D300 digital dispenser was used to dose cells with DMSO or test compounds across a 10-point range of concentrations (high dose of 5 μM), and cultures were grown in a humidified 5% CO2 incubator at 37° C. After six days, plates were removed from incubator and equilibrated to room temperature. An equal volume of ATPlite assay reagent was added to each well, and samples were processed according to the manufacturer's instructions (Perkin Elmer). The luminescent signal was measured using an Envision plate reader equipped with a US-Luminescence detector.

Broadly, the EC50 is the concentration giving half of the maximal effect. In the case of `COc1c(O)c(C(N)=O)cc(-c2cn(CC(=O)Nc3cc(N4CCN(C)C[C@@H]4C)nc(F)c3Cl)c3nc4n(c(=O)c23)CCC4)c1F` [I-15, (S)-5-(1-(2-((3-chloro-6-(2,4-dimethylpiperazin-1-yl)-2-fluoropyridin-4-yl)amino)-2-oxoethyl)-4-oxo-4,6,7,8-tetrahydro-1H-dipyrrolo[1,2-a:2′,3′-d]pyrimidin-3-yl)-4-fluoro-2-hydroxy-3-methoxybenzamide], the EC50 was 649 nM. For `COc1c(O)c(C(N)=O)cc(-c2cn(CC(=O)Nc3cc(N4CCOC[C@@H]4C)nc(F)c3Cl)c3nc4n(c(=O)c23)CCC4)c1F` [I-16, (S)-5-(1-(2-((3-chloro-2-fluoro-6-(3-methyl-morpholino)pyridin-4-yl)amino)-2oxoethyl)-4-oxo-4,6,7,8-tetra-hydro-1H-dipyrrolo [1,2-a:2′,3′-d]pyri-midin-3-yl)-4-fluoro-2-hydroxy-3-methoxy-benzamide], the 50% effective concentration (EC50) came to 778 nM.
